The source of these data is PubChem BioAssay (NCI).

Only a part is listed here, and it is no random draw.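 Note: values are percent growth. 100 is the growth of untreated cells, values between 100 and 0 indicate rising inhibition; between -100 and 0 indicates cell death.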 Active and inactive are the calls of the source. Rule for the calls: active = growth percent below 10; inactive = the rest.

Some test systems named below: SK-MEL-2 melanoma; EKVX NSCLC; SN12C renal; UO-31 renal; TK-10 renal; ACHN renal; CAKI-1 renal; A498 renal; HL-60(TB) leukemia; CCRF-CEM leukemia; MOLT-4 leukemia; SR leukemia; RPMI-8226 leukemia; OVCAR-8 ovarian; OVCAR-5 ovarian; OVCAR-4 ovarian; SK-OV-3 ovarian; IGROV1 ovarian; OVCAR-3 ovarian; HS 578T breast.
What all share (experiment): NCI-60 one-dose screen, 48 h (100 = growth as untreated, 0 = no growth, -100 = all killed)
Conditions in all cases: 10 µM

With `[O-][n+]1onc(-c2ncon2)c1-c1ncon1`, the growth in the assay on SK-MEL-2 melanoma was inactive: 97.3%; in the assay with EKVX NSCLC, inactive: 99.8%; in the assay on SN12C renal it was inactive: 102%; in the assay with UO-31 renal it was inactive: 100%; with TK-10 renal, inactive: 73.1%; with ACHN renal, active: -71.9%. Also, the growth is inactive: 94.4% in the assay with CAKI-1 renal; inactive: 95.5% in the assay on A498 renal; inactive: 47.3% with HL-60(TB) leukemia; inactive: 43% in the assay with CCRF-CEM leukemia; inactive: 22.4% with MOLT-4 leukemia; active: -4.66% in the assay with SR leukemia. Besides, the growth is inactive: 49.5% in the assay with RPMI-8226 leukemia; inactive: 111% in the assay on OVCAR-8 ovarian; inactive: 106% with OVCAR-5 ovarian; inactive: 108% in the assay with OVCAR-4 ovarian; inactive: 125% with SK-OV-3 ovarian; inactive: 112% with IGROV1 ovarian. Also, the figures for the growth with OVCAR-3 ovarian and in the assay on HS 578T breast were active: -17.7% and inactive: 96.3%, respectively.
Turning to `O=C(O)c1ccc(N(CCCl)CCCl)cc1`, the growth was inactive: 96.8% in the assay on SK-MEL-2 melanoma; inactive: 109% in the assay with EKVX NSCLC; inactive: 111% with SN12C renal; inactive: 101% in the assay on UO-31 renal; inactive: 107% in the assay with TK-10 renal; inactive: 106% in the assay with ACHN renal. For the same compound, the growth in the assay with CAKI-1 renal was inactive: 96.4%; in the assay on A498 renal it was inactive: 87.4%; with HL-60(TB) leukemia it was inactive: 99.9%; with CCRF-CEM leukemia, inactive: 96.3%; with MOLT-4 leukemia, inactive: 93.6%; with SR leukemia it was inactive: 87.6%. The growth in the assay on RPMI-8226 leukemia was inactive: 107%; in the assay on OVCAR-8 ovarian, inactive: 102%; in the assay with OVCAR-5 ovarian it was inactive: 107%; with OVCAR-4 ovarian, inactive: 114%; in the assay with SK-OV-3 ovarian, inactive: 114%; with OVCAR-3 ovarian it was inactive: 122%. In addition, the growth in the assay on HS 578T breast is inactive: 121%.
In the case of `Oc1ccc(N(CCCl)CCCl)cc1`, the growth in the assay on SK-MEL-2 melanoma is inactive: 111%; in the assay with EKVX NSCLC it was inactive: 106%; in the assay on SN12C renal, inactive: 62.8%; with UO-31 renal, inactive: 81.6%; in the assay on TK-10 renal it was inactive: 100%; in the assay with ACHN renal, inactive: 27.7%. Further, the growth in the assay with CAKI-1 renal is inactive: 37.6%; in the assay with A498 renal, inactive: 114%; with HL-60(TB) leukemia, inactive: 46.8%; in the assay on CCRF-CEM leukemia, inactive: 57%; with MOLT-4 leukemia it was inactive: 56.9%; in the assay with SR leukemia, inactive: 30.2%. Also, the growth with RPMI-8226 leukemia is inactive: 76.6%; with OVCAR-8 ovarian, inactive: 83%; with OVCAR-5 ovarian, inactive: 128%; in the assay with OVCAR-4 ovarian it was inactive: 102%; in the assay with SK-OV-3 ovarian it was inactive: 90.2%; in the assay with IGROV1 ovarian, inactive: 97.8%. The growth was inactive: 130% in the assay on OVCAR-3 ovarian and inactive: 123% with HS 578T breast.
Turning to `NC(=O)C1(Nc2ccccc2)CCN(Cc2ccccc2)CC1`, the growth in the assay on SK-MEL-2 melanoma was inactive: 103%; in the assay with EKVX NSCLC, inactive: 104%; in the assay with SN12C renal it was inactive: 104%; with UO-31 renal it was inactive: 79.8%; in the assay on TK-10 renal it was inactive: 110%; in the assay with ACHN renal it was inactive: 110%. Moreover, the growth in the assay on CAKI-1 renal is inactive: 100%; in the assay with HL-60(TB) leukemia, inactive: 101%; in the assay on CCRF-CEM leukemia, inactive: 107%; in the assay on MOLT-4 leukemia it was inactive: 100%; in the assay on RPMI-8226 leukemia, inactive: 109%; in the assay on OVCAR-8 ovarian it was inactive: 108%. The growth is inactive: 94.1% in the assay with OVCAR-5 ovarian; inactive: 108% in the assay with OVCAR-4 ovarian; inactive: 108% in the assay with SK-OV-3 ovarian; inactive: 111% in the assay with IGROV1 ovarian; inactive: 107% in the assay on OVCAR-3 ovarian; inactive: 111% in the assay on HS 578T breast.
As for `COc1ccc(N)cc1CN(CCCl)CCCl`, the growth in the assay on SK-MEL-2 melanoma was inactive: 82.5%; in the assay with EKVX NSCLC, inactive: 90.6%; in the assay on SN12C renal it was inactive: 63.2%; in the assay with UO-31 renal it was inactive: 78.3%; with TK-10 renal, inactive: 71.2%; in the assay with ACHN renal, inactive: 41.5%. The growth was inactive: 33.8% in the assay with CAKI-1 renal; inactive: 76.3% with A498 renal; inactive: 30.5% with HL-60(TB) leukemia; inactive: 32.4% in the assay with CCRF-CEM leukemia; inactive: 33.5% in the assay with MOLT-4 leukemia; inactive: 34.8% in the assay on SR leukemia. In addition, the growth in the assay with RPMI-8226 leukemia is inactive: 73.3%; in the assay with OVCAR-8 ovarian, inactive: 75.5%; in the assay on OVCAR-5 ovarian, inactive: 108%; with OVCAR-4 ovarian, inactive: 107%; in the assay with SK-OV-3 ovarian, inactive: 74.1%; in the assay on IGROV1 ovarian it was inactive: 78.5%. Further, the results for the growth in the assay with OVCAR-3 ovarian and in the assay with HS 578T breast were inactive: 80.1% and inactive: 101%, respectively.
Turning to `CC(C)NP(=O)(F)NC(C)C`, the growth in the assay with SK-MEL-2 melanoma was inactive: 111%; in the assay with EKVX NSCLC, inactive: 110%; in the assay with SN12C renal it was inactive: 104%; with UO-31 renal, inactive: 95.6%; in the assay on TK-10 renal, inactive: 102%; with ACHN renal, inactive: 116%. Moreover, the growth with CAKI-1 renal was inactive: 101%; in the assay on A498 renal, inactive: 102%; with HL-60(TB) leukemia, inactive: 102%; with CCRF-CEM leukemia, inactive: 106%; in the assay on MOLT-4 leukemia it was inactive: 93.1%; in the assay on SR leukemia it was inactive: 109%. For the same compound, the growth in the assay with RPMI-8226 leukemia is inactive: 113%; in the assay with OVCAR-8 ovarian, inactive: 105%; in the assay on OVCAR-5 ovarian it was inactive: 110%; in the assay with OVCAR-4 ovarian, inactive: 108%; in the assay with SK-OV-3 ovarian, inactive: 106%; in the assay on IGROV1 ovarian it was inactive: 103%. Further, the growth with OVCAR-3 ovarian was inactive: 106%; with HS 578T breast, inactive: 105%.
For `c1ccc(CN2CCC(Nc3ccccc3)CC2)cc1`, the growth in the assay with SK-MEL-2 melanoma was inactive: 102%; in the assay with EKVX NSCLC, inactive: 91.6%; with SN12C renal, inactive: 105%; in the assay on UO-31 renal, inactive: 89.8%; in the assay on TK-10 renal, inactive: 105%; in the assay with ACHN renal, inactive: 98.2%. The growth is inactive: 91.1% in the assay with CAKI-1 renal; inactive: 109% with HL-60(TB) leukemia; inactive: 98.6% in the assay on CCRF-CEM leukemia; inactive: 93.9% in the assay on MOLT-4 leukemia; inactive: 86.6% with SR leukemia; inactive: 98.1% with RPMI-8226 leukemia. Moreover, the growth was inactive: 127% in the assay on OVCAR-8 ovarian; inactive: 96.5% in the assay with OVCAR-5 ovarian; inactive: 105% in the assay with OVCAR-4 ovarian; inactive: 102% in the assay with SK-OV-3 ovarian; inactive: 102% in the assay on IGROV1 ovarian; inactive: 109% in the assay with OVCAR-3 ovarian. Further, the growth in the assay on HS 578T breast was inactive: 114%.
Consider `Cc1ccc2oc(=O)cc(CN(CCCl)CCCl)c2c1`, for which the growth is inactive: 105% with SK-MEL-2 melanoma; inactive: 112% in the assay on EKVX NSCLC; inactive: 94.2% in the assay on SN12C renal; inactive: 73.9% in the assay with UO-31 renal; inactive: 91.3% with TK-10 renal; inactive: 87% in the assay with ACHN renal. The growth with CAKI-1 renal was inactive: 81.2%; in the assay on A498 renal, inactive: 91%; with HL-60(TB) leukemia, inactive: 84.5%; in the assay with CCRF-CEM leukemia, inactive: 77.7%; in the assay on MOLT-4 leukemia, inactive: 69%; with SR leukemia, inactive: 71.2%. In addition, the growth is inactive: 96.8% with RPMI-8226 leukemia; inactive: 83.4% in the assay with OVCAR-8 ovarian; inactive: 102% with OVCAR-5 ovarian; inactive: 97.5% with OVCAR-4 ovarian; inactive: 94.6% in the assay on SK-OV-3 ovarian; inactive: 72.8% in the assay with IGROV1 ovarian. Further, the results for the growth in the assay on OVCAR-3 ovarian and in the assay on HS 578T breast were inactive: 96.2% and inactive: 99.5%, respectively.
